Here are results for two compounds from patent publication US8481547B2, “Substituted benzothiazole and benzoxazole derivatives useful as inhibitors of DPP-1” (Janssen Pharmaceutica NV, priority 2009, dated 2013).

Protein sequences, listed by entry. Tags and fused reporters are not part of them. Residues count along the entry.
UniProt P53634, 25-463 limits assumed: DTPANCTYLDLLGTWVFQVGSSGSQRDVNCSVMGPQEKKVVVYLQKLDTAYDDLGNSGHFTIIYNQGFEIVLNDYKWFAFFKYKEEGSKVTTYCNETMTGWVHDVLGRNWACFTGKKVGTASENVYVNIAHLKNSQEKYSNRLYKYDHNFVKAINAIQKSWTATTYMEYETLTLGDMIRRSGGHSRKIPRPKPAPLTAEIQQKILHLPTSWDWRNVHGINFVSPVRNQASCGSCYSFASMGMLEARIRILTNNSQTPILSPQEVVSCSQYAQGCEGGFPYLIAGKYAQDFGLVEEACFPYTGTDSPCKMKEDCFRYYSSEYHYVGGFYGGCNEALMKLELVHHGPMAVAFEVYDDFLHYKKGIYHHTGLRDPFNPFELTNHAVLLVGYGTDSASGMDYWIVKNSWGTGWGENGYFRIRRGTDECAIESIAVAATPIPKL

The assay deals with recombinant human DPP-1 (Cathepsin C) (Homo sapiens, UniProt P53634). Put plainly: DPP-1 Inhibition Assay (In Vitro). As to conditions: read-out: DPP-1 Inhibition IC50, fluorogenic substrate GR-AMC 10 uM, 0.15 nM DPP-1, pH 7.0, room temperature, average value where tested multiple times. Here is the method: Test compounds were assessed for DPP-1 (Cathepsin C) inhibitory activity using a fluorogenic substrate, GR-AMC (Glycine-Arginine-amino-4-methylcoumarin, Bachem, 1-1215). The amount of amino-methylcoumarin released is proportional to the DPP-1 activity, and the reaction is monitored kinetically with a Molecular Devices plate reader using black 96-well plates.
All compounds were tested under room temperature conditions. The assay buffer consisted of 50 mM HEPES, pH 7.0, 100 mM NaCl, 2 mM glutathione (GSH), and 0.002% TWEEN 20. GSH and TWEEN 20 were added to the buffer fresh daily. Just prior to use, an in-house preparation of recombinant human DPP-1 (240 μM stock, MW 49.6 kD) was diluted 600-fold in assay buffer containing fresh 2 mM dithiothreitol (DTT) to activate the enzyme, then diluted into assay buffer (without DTT) 133-fold for a DPP-1 working solution of 3 nM. […]
Additions to a 96-well black Costar 3915 plates were as follows: 90 μL of 11 μM GR-AMC, 5 μL test compound (followed by mixing), and 5 μL 3 nM DPP1 to start the reaction. Fluorescent reactions were monitored kinetically at 360 nm excitation, 440 nm emission on a Molecular Devices Spectramax XPS reader. The Softmax Pro software of the reader determined the initial velocity of the selected data (the first 3-5 minutes of the reaction), and the best linear regression fit of the initial kinetic data. […]

Read-outs that look alike come from different tables or passages of the source.

With `COCCCNC(=O)c1ccc2nc(N3CCN(C(=O)[C@@H](N)Cc4cccs4)CC3)sc2c1`, the IC50 (tested form: HCl) came out at 1.1 µM.

As for `N[C@@H](Cc1cccs1)C(=O)N1CCN(c2nc3ccc(-c4cc(Cl)cc(Cl)c4)cc3s2)CC1`, the IC50 is 1.5 µM.

Usually IC50 stands for the concentration needed to halve the response being measured.
